Results published in patent US9814801B2, “Thiol-ene polymerization with vinylesters and vinylcarbonate” (Depuy Synthes Products, Inc., priority 2011, dated 2017).

System: fibroblast cell culture

| Substance | IC50 [mM] (TC50 values of various monomers) |
| --- | --- |
| poly(ethylene glycol-250)diacetic acid divinyl ester [PEG250DVE] | 0.63 |
| poly(ethylene glycol-600) diacetic acid divinyl ester [PEG600DVE] | 0.63 |
